Chains of the proteins cited; added tags and fusions are not shown.
UniProt P17931, whole entry: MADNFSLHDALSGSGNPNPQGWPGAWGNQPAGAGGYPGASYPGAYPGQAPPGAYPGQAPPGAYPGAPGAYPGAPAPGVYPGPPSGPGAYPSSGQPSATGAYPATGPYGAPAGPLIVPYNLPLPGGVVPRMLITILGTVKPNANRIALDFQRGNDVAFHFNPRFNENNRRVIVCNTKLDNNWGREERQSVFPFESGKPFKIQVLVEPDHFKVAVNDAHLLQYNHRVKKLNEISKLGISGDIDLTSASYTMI

What follows are compounds tested against galectin-3 (Homo sapiens, UniProt P17931) (assay: Galectin-3 Activity - ELISA Assay (inhibition of binding of galectin-3 to a Galβ1-3GlcNAc carbohydrate structure)). Conditions: read-out: IC50 (μM), Galectin-3 Antagonist Activity; competitive ELISA; galectin-3 binding to immobilized Galβ1-3GlcNAcβ1-3Galβ1-4GlcNAcβ-PAA-biotin polymer; A450 readout.
Protocol: Galectin-3 antagonists were evaluated for their ability to inhibit binding of galectin-3 to a Galβ1-3GlcNAc carbohydrate structure. The detailed protocol was as follows. A 1 ug/mL suspension of a Galβ1-3GlcNAcβ1-3Galβ1-4GlcNAcβ-PAA-biotin polymer (Glycotech, catalog number 01-096) was prepared. A 100 uL aliquot of the polymer was added to the wells of a 96-well streptavidin-coated plate (R&D Systems, catalog number CP004). A 100 uL aliquot of 1× Tris Buffered Saline (TBS, Sigma, catalog number T5912-10X) was added to control wells. The polymer was allowed to bind to the streptavidin-coated wells for 1.5 hours at room temperature. The contents of the wells were discarded and 200 uL of 1×TBS containing 1% bovine serum albumin (BSA) was added to each well as a blocking reagent and the plate was kept at room temperature for 30 minutes. The wells were washed three times with 1×TBS containing 0.1% BSA. A serial dilution of test compounds was prepared in a separate V-bottom plate (Corning, catalog number 3897). A 75 uL aliquot of the highest concentration of the compound to be tested was added to the first well in a column of the V-bottom plate then 15 ul were serially transferred into 60 uL 1×TBS through the remaining wells in the column to generate a 1 to 5 serial dilution. A 60 uL aliquot of 2 ug/mL galectin-3 (IBL, catalog number IBATGPO414) was added to each well in the V-bottom plate. A 100 uL aliquot of the galectin-3/test compound mixture was transferred from the V-bottom plate into the assay plate containing the Galβ1-3GlcNAc polymer. Four sets of control wells in the assay plate were prepared in duplicate containing 1) both Galβ1-3GlcNAc polymer and galectin-3, 2) neither the polymer nor galectin-3, 3) galectin-3 only, no polymer, or 4) polymer only, no galectin-3. The plate was gently rocked for 1.5 hours at room temperature. The wells were washed four times with TBS/0.1% BSA. […] The absorbance at 450 nm (A450) was measured using a FlexStation 3 plate reader (Molecular Devices). […]
`CO[C@H]1[C@H]([C@H](OCc2ccc(Cl)cc2)[C@@H](O)c2cccs2)O[C@H](CO)[C@H](O)[C@@H]1n1cc(-c2cc(F)c(F)c(F)c2)nn1` was tested, and the IC50 was 3.52 µM.
`CO[C@H]1[C@H]([C@@H](COC(C)C)OCc2ccc(Cl)cc2)O[C@H](CO)[C@H](O)[C@@H]1n1cc(-c2cc(F)c(F)c(F)c2)nn1` gave an IC50 of 1.18 µM.
For `CO[C@H]1[C@H]([C@H](OCc2ccc(Cl)cc2)[C@H](O)c2cccs2)O[C@H](CO)[C@H](O)[C@@H]1n1cc(-c2cc(F)c(F)c(F)c2)nn1`, the IC50 was 0.42 µM.
